Data taken from patent US20230027198A1 (The Rockefeller University, priority 2019, published 2023).

Amino acid sequences for entries named in this document (tags omitted). Residues count along the entry.
UniProt Q03111, 1-150 limits assumed: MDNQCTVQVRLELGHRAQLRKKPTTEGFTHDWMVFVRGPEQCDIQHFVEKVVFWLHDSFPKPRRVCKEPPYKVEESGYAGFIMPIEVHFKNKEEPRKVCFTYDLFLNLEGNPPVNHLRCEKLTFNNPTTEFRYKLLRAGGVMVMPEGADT

Biological target: ENL YEATS domain (6×HIS ENL YEATS Domain) binding to H3K9cr peptide (Homo sapiens, UniProt Q03111)
Test: TR-FRET ENL Screening Assay, FRET Assay Protocol 1
Conditions: read-out: ENL FRET, H3K9cr peptide (aa1-20)

In the case of `C[C@H]1CCCN1Cc1cc2cnc(NC(=O)c3ccc4[nH]c(=O)ccc4c3)cc2[nH]1`, the IC50 is reported as 193 nM.
